Where two headings read alike, the source gives them in different places.
Conditions: rabbits, mean ± SD
Description: Sublingual tablets or IM doses were administered using a Randomized Crossover study design over 5-consecutive weeks.
Animals were evaluated for viability once-daily throughout the study. Cageside clinical observations were performed twice-daily from the initiation of dosing until the end of treatment. Body weights were obtained upon receipt, on Study Day 1 and weekly thereafter.
Blood samples (approximately 1 mL/time point) were obtained from an indwelling arterial catheter placed approximately 30-minutes prior to initiation of sample collection. Samples were collected immediately prior to dosing (pre-dose baseline) and at approximately 5, 10, 15, 20, 30, 40, 60, 90, 120, and 180 minutes after dosing. At later time points, the samples were obtained by direct needle puncture or by removing the catheter and allowing blood to flow directly from the animal's ear artery into the blood collection tube.
Immediately after collection, the tube was inverted several times to disperse the anticoagulant and then placed on ice until centrifugation. The blood samples were centrifuged (˜2000×g for 10 minutes at 8° C.) within approximately 15-30 minutes of collection to separate the cellular and plasma fractions. The plasma fraction was harvested into screw-capped tubes and stored at approximately −70° C. (±10° C.) until analyzed. […] The remaining red blood cell fraction was discarded. […]
A freshly prepared standard curve was analyzed along with samples on each day of analysis. […] Calibrator concentrations were 0.5, 1, 2, 4, 8, 12, 16 and 20 ng/mL as determined in the validation study. […]
Elimination half-life (T½), maximum concentration (Cmax), time of maximum concentration (Tmax), area under the plasma concentration-time curve from time 0 through the final timepoint (AUC0-t), and area under the plasma concentration-time curve from time 0 extrapolated to infinity (AUC0-∞) were calculated for this study. […] The elimination rate constant, lambda z (λz), was determined by WinNonlin using the best fit method.

Question: With CNC[C@H](O)c1ccc(O)c(O)c1 [Epinephrine] as the compound, how does the Tmax2 (0.3 mg IM) read?
Answer: 30.0 ± 7.1 min

Question: And the Tmax2 (15 mg sublingual tablet)?
Answer: 43.3 ± 27.3 min

Question: And the Tmax2 (60 mg sublingual (2x30 mg tablets))?
Answer: 66.0 ± 39.1 min

Reference: US20070202163A1 (priority 2005, published 2007)
